Our source for the Bmax, Kd and Ki values is PMC2813939 (Neuropsychopharmacology : official publication of the …, 2009).

Amino acid sequences for entries named in this document (tags omitted). A change or cut given only in a name is not applied to a line headed by its entry. Residues count along the entry.
UniProt P14416, 1-414 isoform P14416-2: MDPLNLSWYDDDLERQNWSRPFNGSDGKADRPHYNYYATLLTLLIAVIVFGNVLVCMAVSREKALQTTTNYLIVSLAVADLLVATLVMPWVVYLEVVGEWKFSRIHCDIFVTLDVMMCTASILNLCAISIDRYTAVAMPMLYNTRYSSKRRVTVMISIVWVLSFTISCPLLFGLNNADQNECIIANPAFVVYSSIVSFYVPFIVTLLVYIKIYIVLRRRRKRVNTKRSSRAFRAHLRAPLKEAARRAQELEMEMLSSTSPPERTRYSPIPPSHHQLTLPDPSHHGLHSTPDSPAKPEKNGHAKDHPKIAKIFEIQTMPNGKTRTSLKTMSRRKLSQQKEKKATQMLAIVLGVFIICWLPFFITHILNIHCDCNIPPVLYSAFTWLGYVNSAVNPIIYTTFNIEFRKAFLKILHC

Several values for one entry are separate records, joined by “and”; a condition that tells them apart may be missing. Equal entries are not always repeated. Where two headings read alike, the source gives them in different places.

Common to all, as to test: cell-based
In assay [1] the target is T1, human D2 receptor (short isoform, D2S) (Homo sapiens, UniProt P14416). Format: binding.
Assay [2] deals with T1, human D2 receptor (short isoform, D2S).
For assay [3] the target is unchanged. The source holds these as a separate data set.

In the case of `CN1CN(c2ccccc2)C2(CCN(CCCC(=O)c3ccc(F)cc3)CC2)C1=O` [NMSP, N-methylspiperone], in assay [1], the Bmax is 37.75 pmol/10^5 cells and 19.35 pmol/10^5 cells.

Turning to `CCN1CCC[C@H]1CNC(=O)c1c(O)c(Cl)cc(Cl)c1OC` [Raclopride], the equilibrium dissociation constant (Kd) in assay [1] (KD) is 1.2 nM and 0.5 nM. For the same molecule, the Ki was 1 ± 0.35 nM in assay [2] (Internalized D2 receptor (Q+/MTSET+) KI(i)); 0.5 ± 0.08 nM in assay [2] (Surface D2 receptor (Q-/MTSET-) KI(s)); 0.26 nM and 0.28 nM in assay [3].
